The NIST ThermoML archive (doi:10.1021/je8005369)
± gives the expanded uncertainty stated by the source.

Settings: Liquid; for mass density: Vibrating Wire Viscometer; for viscosity: Vibrating wire viscometry

CCCCOCCCC [dibutyl ether]
Settings	mass density [kg/m3]	viscosity [mPa·s]
243.15 K, 100 kPa	809.772 ± 1.6	1.734 ± 0.037
243.15 K, 4800 kPa	812.717 ± 1.6	1.836 ± 0.039
243.15 K, 10290 kPa	816.304 ± 1.6	1.954 ± 0.042
243.15 K, 15700 kPa	819.465 ± 1.6	2.083 ± 0.045
243.15 K, 21120 kPa	822.606 ± 1.7	2.221 ± 0.048
253.15 K, 100 kPa	801.37 ± 1.6	1.379 ± 0.03
253.15 K, 4550 kPa	804.548 ± 1.6	1.448 ± 0.031
253.15 K, 9650 kPa	807.789 ± 1.6	1.54 ± 0.033
253.15 K, 14760 kPa	811.186 ± 1.6	1.624 ± 0.035
253.15 K, 19760 kPa	814.14 ± 1.6	1.716 ± 0.037
263.15 K, 100 kPa	793.117 ± 1.6	1.126 ± 0.024
263.15 K, 4650 kPa	796.489 ± 1.6	1.183 ± 0.026
263.15 K, 10000 kPa	800.232 ± 1.6	1.256 ± 0.027
263.15 K, 15290 kPa	803.649 ± 1.6	1.332 ± 0.029
263.15 K, 20520 kPa	807.105 ± 1.6	1.404 ± 0.03
273.15 K, 100 kPa	784.503 ± 1.6	0.942 ± 0.021
273.15 K, 4810 kPa	788.298 ± 1.6	0.9913 ± 0.022
273.15 K, 10200 kPa	792.324 ± 1.6	1.049 ± 0.023
273.15 K, 15570 kPa	796.106 ± 1.6	1.109 ± 0.024
273.15 K, 20870 kPa	799.664 ± 1.6	1.171 ± 0.025
283.15 K, 100 kPa	776.314 ± 1.6	0.8032 ± 0.018
283.15 K, 4780 kPa	780.133 ± 1.6	0.8437 ± 0.019
283.15 K, 10150 kPa	784.429 ± 1.6	0.8898 ± 0.02
283.15 K, 15580 kPa	788.422 ± 1.6	0.9423 ± 0.021
283.15 K, 20830 kPa	792.172 ± 1.6	0.9923 ± 0.022
293.15 K, 100 kPa	767.938 ± 1.5	0.6906 ± 0.015
293.15 K, 4750 kPa	772.058 ± 1.6	0.7263 ± 0.016
293.15 K, 10180 kPa	776.552 ± 1.6	0.7684 ± 0.017
293.15 K, 15470 kPa	780.608 ± 1.6	0.812 ± 0.018
293.15 K, 20760 kPa	784.626 ± 1.6	0.8546 ± 0.019
303.15 K, 100 kPa	759.934 ± 1.5	0.608 ± 0.014
303.15 K, 4500 kPa	763.973 ± 1.5	0.6386 ± 0.015
303.15 K, 9570 kPa	768.455 ± 1.6	0.6735 ± 0.015
303.15 K, 14530 kPa	772.612 ± 1.6	0.7081 ± 0.016
303.15 K, 19670 kPa	776.718 ± 1.6	0.7436 ± 0.017
313.15 K, 100 kPa	751.438 ± 1.5	0.5388 ± 0.012
313.15 K, 4510 kPa	755.825 ± 1.5	0.5648 ± 0.013
313.15 K, 9600 kPa	760.621 ± 1.5	0.5966 ± 0.014
313.15 K, 14650 kPa	765.058 ± 1.5	0.6282 ± 0.014
313.15 K, 19640 kPa	769.315 ± 1.6	0.6571 ± 0.015
323.15 K, 100 kPa	743.119 ± 1.5	0.4805 ± 0.011
323.15 K, 4510 kPa	747.707 ± 1.5	0.5061 ± 0.012
323.15 K, 9570 kPa	752.915 ± 1.5	0.5306 ± 0.012
323.15 K, 14630 kPa	757.591 ± 1.5	0.5608 ± 0.013
323.15 K, 19600 kPa	761.898 ± 1.5	0.59 ± 0.013
333.15 K, 100 kPa	734.484 ± 1.5	0.4326 ± 0.01
333.15 K, 4490 kPa	739.443 ± 1.5	0.4553 ± 0.011
333.15 K, 9580 kPa	744.884 ± 1.5	0.4806 ± 0.011
333.15 K, 14630 kPa	749.942 ± 1.5	0.5061 ± 0.012
333.15 K, 19620 kPa	754.541 ± 1.5	0.5317 ± 0.012
343.15 K, 100 kPa	725.879 ± 1.5	0.3914 ± 0.0095
343.15 K, 4640 kPa	731.433 ± 1.5	0.412 ± 0.0099
343.15 K, 9640 kPa	737.137 ± 1.5	0.4352 ± 0.01
343.15 K, 14730 kPa	742.477 ± 1.5	0.4581 ± 0.011
343.15 K, 19730 kPa	747.369 ± 1.5	0.4822 ± 0.011
353.15 K, 100 kPa	717.116 ± 1.5	0.3538 ± 0.0088
353.15 K, 4510 kPa	722.869 ± 1.5	0.3738 ± 0.0091
353.15 K, 9570 kPa	729.12 ± 1.5	0.3945 ± 0.0095
353.15 K, 14640 kPa	734.754 ± 1.5	0.4166 ± 0.01
353.15 K, 19630 kPa	740.012 ± 1.5	0.4373 ± 0.01
363.15 K, 100 kPa	708.168 ± 1.4	0.3236 ± 0.0082
363.15 K, 4510 kPa	714.412 ± 1.5	0.3413 ± 0.0085
363.15 K, 9720 kPa	721.185 ± 1.5	0.3622 ± 0.0089
363.15 K, 15300 kPa	727.703 ± 1.5	0.3835 ± 0.0093
363.15 K, 21100 kPa	733.972 ± 1.5	0.407 ± 0.0098
373.15 K, 100 kPa	699.123 ± 1.4	0.2954 ± 0.0077
373.15 K, 4900 kPa	706.359 ± 1.4	0.3145 ± 0.008
373.15 K, 10170 kPa	713.653 ± 1.5	0.3337 ± 0.0084
373.15 K, 15630 kPa	720.422 ± 1.5	0.3536 ± 0.0088
373.15 K, 20590 kPa	726.094 ± 1.5	0.3733 ± 0.0091
